## Antibody variant affinities, Ab-14 light chain, assay B

Values reported by Li et al. 2023, doi:10.1038/s41467-023-39022-2 (FLAb copy).

All variants were tested on one target, the spike HR2 peptide PDVDLGDISGINAS (SARS-CoV-2).

Parent: Ab-14, a human scFv built as VH, a (GGGGS)3 linker, VL. Only the CDRs of the light chain vary.
VH: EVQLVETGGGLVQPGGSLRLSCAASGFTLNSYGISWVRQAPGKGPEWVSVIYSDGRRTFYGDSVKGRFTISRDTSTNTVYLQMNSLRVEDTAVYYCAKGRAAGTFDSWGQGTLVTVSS
VL: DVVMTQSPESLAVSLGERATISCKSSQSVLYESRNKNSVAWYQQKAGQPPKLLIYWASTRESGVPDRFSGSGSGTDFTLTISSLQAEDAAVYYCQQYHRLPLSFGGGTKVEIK

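The starting antibody came from a phage panning campaign against this peptide. Designed CDR sequences, proposed from the first random library and measured here. Group labels follow the data file (Ctrl: baseline library sampled from a position-specific scoring matrix, with some repeated check sequences; En: ensemble of fine-tuned language models; GP: Gaussian process model; HC: hill climbing; Gen: genetic algorithm; Gibbs: Gibbs sampling; a sequence that several methods proposed may carry one label only). In AlphaSeq, yeast of one mating type display the scFv and yeast of the other type display the target. The frequency of each diploid, read from paired DNA barcodes, reflects how well the two displayed proteins bind. Scores were corrected for input abundance and mapped to Kd with protein pairs of known affinity run in the same pool. Each pool was mated in six replicate cultures.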

Variants are written as CDR1, CDR2 and CDR3 of the light chain (limits as in the source). Parent: KSSQSVLYESRNKNSVA, WASTRES, QQYHRLPLS.
The read-out is the apparent dissociation constant on a log10 scale (nM): the lower, the stronger.
Averages over replicates are reported, and they cover detected replicates only.
Where no diploid with the target was found in any replicate, the entry reads "nd": below detection, most likely a poor binder, though not proof of it.
Order: sorted from the lowest average up, undetected variants last.

| CDR-L1 | CDR-L2 | CDR-L3 | group | mean log10 Kd (nM) | seen in |
|---|---|---|---|---|---|
| KLSEDALYESRNKNSVA | QASTREV | QQYHRLPLS | GP_Gibbs | -0.49 | 6/6 |
| ALSQGWLYESRNKNSVA | GASTRED | QQYHRLPLS | GP_HC | -0.43 | 6/6 |
| KSCQSVLYESRNKNSIA | GASTRES | QQYHRLPLS | Ctrl | -0.35 | 6/6 |
| KLSQSVAYESRNKNSVA | QASTRES | QQYARLPLS | Ctrl | -0.27 | 6/6 |
| KQSQEKLYESRNSNSVA | DASTRES | QQYHRLPLS | GP_HC | -0.26 | 6/6 |
| KLEQSELYESRNKNSVA | NASKRES | QQYHRLPLS | GP_Gen | -0.25 | 6/6 |
| KLASRQYQFGANHQNIA | DATSSMN | QQYMHLPFT | En_Gibbs | -0.20 | 6/6 |
| KLSWSVLYESRNKNSVA | NASTRES | QQYHRLPLS | GP_Gen | -0.16 | 6/6 |
| KQSGSVLQESRNKNSVA | DASTRES | QQYHRLPLS | GP_HC | -0.16 | 6/6 |
| KLQQSVLYESRNKNSVA | GASTRSS | QQYHRLPLS | GP_Gen | -0.15 | 6/6 |
| HLSQSSDLESVHKNSIA | DLMTRES | QQYHRLPLS | En_HC | -0.13 | 6/6 |
| KLGGVTSYEMQNVNSVA | QMTTRES | QQYHRLPLS | En_HC | -0.11 | 6/6 |
| KLSQSQLYESRNKNSVA | NASTRFS | QQYHRLPLS | GP_Gen | -0.10 | 6/6 |
| KVSQSVLYEERNKNSVA | QASTRES | QQYHRLPLS | GP_Gen | -0.07 | 6/6 |
| KITQLVMETSRNKNNVA | EVSTLPD | QQYHRLPLS | En_HC | -0.06 | 6/6 |
| KSQQSQEYESRNKNSVA | QASTRED | QQYHRLPLS | GP_HC | 0.03 | 6/6 |
| KSSQSVLYESRNKNSVA | KASTRES | QQYARLPLS | Ctrl | 0.03 | 6/6 |
| KVSQSVLQEDRNSNSVA | NASTREL | QQYHRLPLS | GP_Gibbs | 0.17 | 6/6 |
| KLDPSDLGESRNKNSVA | QASQREI | QQYHQLPLS | GP_Gibbs | 0.22 | 6/6 |
| KLTMITGLEKVHGNNVA | EMETRTK | QQYNRLPLS | En_Gen | 0.24 | 6/6 |
| KLSQSDLYESRMKNSVA | NASQRES | QQYHRLPLS | GP_Gen | 0.25 | 6/6 |
| KSSQSELEESRNKNSVA | HASTRES | QQYHRLPLA | Ctrl | 0.26 | 6/6 |
| KISQSSLYEGRNKNSVA | HASTRES | QQYHKLPLS | Ctrl | 0.27 | 6/6 |
| AVSFSHLGSSRNKNSVA | EASTREQ | QQYHRLPLS | GP_Gibbs | 0.29 | 6/6 |
| HISSMDMHDGGIMHSIA | DTGITER | QQYMRLPLS | En_Gibbs | 0.30 | 3/6 |
| KFEGSMLYESRNGNSVA | QASTRSS | QQYHRLPLS | GP_Gibbs | 0.30 | 6/6 |
| KFSPSVLYESRMSNSVA | NASTRES | QQYHRLPLS | GP_HC | 0.35 | 6/6 |
| KFEQSNGYESRNKNSVA | NASTRES | QQYWRLPLS | GP_Gibbs | 0.39 | 6/6 |
| KLMQSVLYESRNKNSVA | HASERED | QQYHRLPLS | GP_HC | 0.41 | 6/6 |
| KMSQSFLYESRWKNSVA | GASQRES | QQYHRLPLS | GP_HC | 0.45 | 6/6 |
| KIQWYPLEIRGTGSAVA | EAATRYN | QQYMRLPLM | En_Gibbs | 0.47 | 6/6 |

Second part, the sequence after the result:

| mean log10 Kd (nM) | seen in | CDR-L1 | CDR-L2 | CDR-L3 | group |
|---|---|---|---|---|---|
| 0.48 | 6/6 | NLKEMEGTNQTKHGNIA | SVDQRMT | QQYFRLPLI | En_Gibbs |
| 0.48 | 6/6 | KLSYSWPGESRNKNSVA | DAGTRES | QQYHRLPLS | GP_Gibbs |
| 0.52 | 6/6 | KLVQSVLYESRNKNSVA | NASTRES | QQYHRLPLS | GP_Gen |
| 0.56 | 6/6 | KLSQSELYESRMKNSVA | NASTRLS | QQYHRLPLS | GP_Gen |
| 0.63 | 6/6 | HIGGVLMGENVKARSVA | HMNTRED | QQYDRLPLS | En_Gen |
| 0.75 | 6/6 | NLQYLEEESLIGASAIA | DVNIAVM | QQYSRLPLA | En_Gibbs |
| 0.87 | 6/6 | MVSQLMLWGLHAKNSIA | EAETRIN | QQYDRLPLF | En_Gen |
| 0.90 | 6/6 | TISQMTSQFSQTINNVA | EVSTREK | QQYDRLPLA | En_Gen |
| 0.92 | 6/6 | KLEGSVEYESRWKNSVA | HASTREV | QQYHRLPLS | GP_Gibbs |
| 0.95 | 6/6 | KIGHGVTGTMRKGNSVA | QAETRLD | QQYHRLPLS | En_HC |
| 1.00 | 3/6 | RIQDHMAVGTMSHSSIA | EEATWMD | QQYSRLPLA | En_Gibbs |
| 1.18 | 6/6 | TVTQMAMTGMKNKRSVA | NAEMREN | QQYHRLPLI | En_Gen |
| 1.22 | 6/6 | MISQLMNLGQFAINSVA | QASIRNS | QQYDRLPLI | En_Gen |
| 1.29 | 6/6 | TISQMTSLFSQSINNVA | EVSMREP | QQYDRLPLV | En_Gen |
| 1.33 | 4/6 | KSSQSDLEESRNKNSVA | WASTRES | QQYRRLPLS | Ctrl |
| 1.35 | 6/6 | KSPQSELYESRNKNSVA | WASTRES | QQYHHLPLS | Ctrl |
| 1.57 | 6/6 | YVSIQAAQDRNQQQSIA | GVDYREK | QQYYHLPLS | En_Gibbs |
| 1.62 | 6/6 | KIQHQHVGNWKTANNIA | QGDQRGS | QSYDRLPLS | En_Gibbs |
| 1.73 | 6/6 | TLMFDGEQSDSENKAIA | DAIHKGV | QQYNRLPLT | En_Gibbs |
| 1.76 | 6/6 | KLDLLNGEMDIGGDSIA | EVSTAGM | QQYWRLPLS | En_Gibbs |
| 1.79 | 6/6 | TIGGTLMYGVRNRSNVA | EVSQRLN | QQYDRLPLI | En_Gen |
| 1.88 | 1/6 | SMMFDTSDNYHERNNIA | EQAAIMA | QQYSILPLS | En_Gibbs |
| 2.02 | 6/6 | TISQMTSLFSQSINNVA | EVSMREE | QQYDRLPLI | En_Gen |
| 2.08 | 3/6 | HLSFPWQSGHDSTNAVA | NDSTLMT | QSYNRLPLS | En_Gibbs |
| 2.14 | 2/6 | KSSQSVLHESRNKNSVA | WASTRES | QQYHRLPLS | Ctrl |
| 2.16 | 1/6 | KSSQSVLYESRNGNSVA | WASTRDS | QQYHGLPLS | Ctrl |
| 2.38 | 3/6 | KSSQYVLYGSRNKNSVA | WASTRES | QQYHRLPLS | Ctrl |
| 2.39 | 1/6 | KKSQSVLYESRNKNSVA | WASTRES | QQVHRLPLS | Ctrl |
| 2.43 | 4/6 | SFSHESEGSKNEEASIA | STETLMS | QDYARLPLA | En_Gibbs |
| 2.93 | 5/6 | VLMGWGADSIQHANSVA | DADEVDM | QQYAHLPLS | En_Gibbs |
| nd | 0/6 | MISQLMNMGTFAINSVA | QAQLRNE | QQYDRLPLT | En_Gen |
| nd | 0/6 | TISMSMNWLTFNKDNIA | EESTREK | QQYDRLPLS | En_HC |

The 7 strongest on average among those seen in every replicate, once more:

CDR-L1,CDR-L2,CDR-L3,group,mean log10 Kd (nM),seen in
KLSEDALYESRNKNSVA,QASTREV,QQYHRLPLS,GP_Gibbs,-0.49,6/6
ALSQGWLYESRNKNSVA,GASTRED,QQYHRLPLS,GP_HC,-0.43,6/6
KSCQSVLYESRNKNSIA,GASTRES,QQYHRLPLS,Ctrl,-0.35,6/6
KLSQSVAYESRNKNSVA,QASTRES,QQYARLPLS,Ctrl,-0.27,6/6
KQSQEKLYESRNSNSVA,DASTRES,QQYHRLPLS,GP_HC,-0.26,6/6
KLEQSELYESRNKNSVA,NASKRES,QQYHRLPLS,GP_Gen,-0.25,6/6
KLASRQYQFGANHQNIA,DATSSMN,QQYMHLPFT,En_Gibbs,-0.20,6/6

Background: pairings of all light chain designs with three empty control strains gave a value in 4% of cases (median 2.64, 5th percentile 1.59). Values in that range, when seen in few replicates, are hard to tell from nonspecific mating.
A sequence measured in both rounds can read differently, since the two assays cover different ranges.
The authors averaged sequences with at least three values out of six and counted those with two or fewer as poor binders.